Each structure is given as a SMILES string. Only a part is listed here, and it is no random draw. Active and inactive are the calls of the source.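 How the source made its calls: active means inhibition above 20%; inactive means inhibition below 20%.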

The inhibition is the change of the read-out against control, counted positive when it falls.

The experiment in a line: clotrimazole potentiators killing Candida biofilms, primary screen, with clotrimazole, Alamar Blue (AID 834).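 Further: preformed 24 hr biofilms exposed to compound for 48 hr; 0% = biofilm without compound and 100% = blank killed by clotrimazole plus chlorhexidine.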 Conditions: C. albicans biofilm + clotrimazole, at 6 µM, hits give high values.
Regarding `CP(=O)(OC12CC3CC(CC(C3)C1)C2)OC12CC3CC(CC(C3)C1)C2`, the inhibition was inactive: 7.33%.

`COc1ccccc1OP(C)(=O)Nc1c(C)n(C)n(-c2ccccc2)c1=O` (stereo not given): the inhibition was inactive: 6%.

Consider `CP(=O)(Oc1ccccc1)N1CCOC1=O` (stereo not given), for which the inhibition is inactive: 11.1%.

Turning to `CC(C)(C)c1ccc(OP(C)(=O)O)cc1`, the inhibition was inactive: 4.37%.

With `CP(=O)(Nc1ccc(Cl)cc1)Oc1ccc(F)cc1` (stereo not given), the inhibition was inactive: 12.8%.

In the case of `COc1ccc(OP(C)(=O)Nc2ccccn2)cc1` (stereo not given), the inhibition was inactive: 1.67%.

Regarding `CN(C)CCOC(=O)C(O)(c1ccccc1)C1CCCC1` (stereo not given), the inhibition was inactive: 4.39%.

Take `CP(=O)(Nc1ccccn1)Oc1ccccc1` (stereo not given): the inhibition is inactive: 3.95%.

As to `COc1ccccc1OP(C)(=O)Nc1ccc(C)cc1C` (stereo not given), the inhibition is inactive: 1.82%.

Turning to `CCc1ccc(OP(C)(=O)O)cc1`, the inhibition is inactive: 4.77%.

Take `Cc1c(NP(C)(=O)Oc2ccc(C(C)C)cc2)c(=O)n(-c2ccccc2)n1C` (stereo not given): the inhibition was inactive: 1.76%.

Regarding `COc1ccccc1OP(C)(=O)Nc1ccc(C)c(C)c1` (stereo not given), the inhibition is inactive: 5.12%.

Turning to `CP(=O)(Nc1ccccc1)Oc1ccc(F)cc1` (stereo not given), the inhibition was inactive: 4.8%.

Take `CCN(CC)CCCOC(=O)C(O)(c1ccccc1)C1CCCCC1` (stereo not given): the inhibition was inactive: 8.45%.

`CP(=O)(Nc1ccccc1F)Oc1ccccc1` (stereo not given): the inhibition is inactive: 8.18%.

`CCOP(C)(=S)SCC(=O)NC(C)(CC)C(=O)O` (stereo not given): the inhibition was inactive: 4.66%.

With `Cc1ccccc1NP(C)(=O)Nc1ccccc1C`, the inhibition is inactive: 5.88%.

With `CP(=O)(Nc1ccc2c(c1)OCCO2)Oc1ccccc1` (stereo not given), the inhibition was inactive: 8.04%.

In the case of `CN(C)CCOC(=O)C(O)(c1ccccc1)C1CCCCC1` (stereo not given), the inhibition is inactive: 9.22%.

As for `COc1ccccc1OP(C)(=O)Nc1c(C)cccc1C` (stereo not given), the inhibition was inactive: 4.64%.

Consider `Cc1nc2ccc3ccccc3c2s1.O=[N+]([O-])c1cc([N+](=O)[O-])c(O)c([N+](=O)[O-])c1`, for which the inhibition was inactive: 7.96%.

As for `Cc1cc(C)cc(OP(C)(=O)Nc2ccc(C)cc2C)c1` (stereo not given), the inhibition was inactive: -7.43%.

As to `Cc1ccc(C)c(NP(C)(=O)Oc2ccccc2)c1` (stereo not given), the inhibition is inactive: 11.7%.

In the case of `Cc1cc(C)cc(OP(C)(=O)Nc2ccccn2)c1` (stereo not given), the inhibition was inactive: -0.19%.

Consider `COc1ccc(OP(C)(=O)Nc2cccc(F)c2)cc1` (stereo not given), for which the inhibition was inactive: 8.59%.

Turning to `COc1ccccc1OP(C)(=O)Nc1ccc(C)cc1` (stereo not given), the inhibition is inactive: 6.8%.

With `Cc1ccc(NP(C)(=O)Oc2ccccc2)c(C)c1` (stereo not given), the inhibition was inactive: 3.46%.

With `CP(=O)(Nc1ccccn1)Oc1ccc(Cl)cc1` (stereo not given), the inhibition was inactive: -1.39%.

Consider `CCOP(C)(=S)SCC(=O)NC(C)C(=O)O` (stereo not given), for which the inhibition is inactive: 2.33%.

For the compound `CP(=S)(Nn1cnnc1)Oc1ccccc1` (stereo not given), the inhibition was inactive: -5.12%.

(Values after PubChem BioAssay AID834 (PCMD, 2007).)
